These results are taken from PMC2756481 (Biochemical and biophysical research communications, 2009).

In the assay the target is T1, 64 kDa MMP-2 (Homo sapiens, UniProt P08253).
T1 sequence (P08253 110-660): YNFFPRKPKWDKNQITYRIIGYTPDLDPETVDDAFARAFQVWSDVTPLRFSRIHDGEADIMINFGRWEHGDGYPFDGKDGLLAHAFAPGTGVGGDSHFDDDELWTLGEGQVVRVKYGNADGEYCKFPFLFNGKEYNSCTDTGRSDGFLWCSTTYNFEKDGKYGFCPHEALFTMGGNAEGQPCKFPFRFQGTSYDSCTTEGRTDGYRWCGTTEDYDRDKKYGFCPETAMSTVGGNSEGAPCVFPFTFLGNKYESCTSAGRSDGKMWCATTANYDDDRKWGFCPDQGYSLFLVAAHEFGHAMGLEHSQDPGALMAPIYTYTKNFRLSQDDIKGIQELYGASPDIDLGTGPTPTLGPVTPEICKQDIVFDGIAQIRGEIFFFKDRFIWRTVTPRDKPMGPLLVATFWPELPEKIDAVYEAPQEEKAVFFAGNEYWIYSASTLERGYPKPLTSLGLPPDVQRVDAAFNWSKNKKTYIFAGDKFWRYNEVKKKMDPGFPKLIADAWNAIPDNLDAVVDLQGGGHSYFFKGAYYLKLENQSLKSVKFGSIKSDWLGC
The assay can be described thus: OmniMMP fluorogenic substrate kinetic assay of MMP-2 activity. The format is biochemical.

Regarding `c1cnc2c(c1)ccc1cccnc12` [o-Phenanthroline, o-phenanthroline], the “decrease in potency at 10 µM ZnSO4 compared to potency at 1 nM ZnSO4” value (10 µM vs 1 nM ZnSO4) came to 2.5 fold. The compound further had a half-maximal inhibitory concentration (IC50) (IC50 ± SD) of 293 ± 14 µM.

The IC50 is the concentration that gives 50% inhibition.
